Assay results taken from patent US9670244B2, “Oxysterol compounds and the hedgehog pathway” (THE REGENTS OF THE UNIVERSITY OF CALIFORNIA, priority 2006, dated 2017).

Test system: Gli-dependent luciferase reporter
Details: 48 hours
Description: Cells were plated into 24-well plates and transfected the next day with Gli-dependent firefly luciferase and Renilla luciferase vectors and where indicated, Smo or Ptch expression vectors. […] Cells were treated for 48 hours prior to assessing luciferase activity using the Dual Luciferase Reporter Assay System (Promega, Madison, Wis.) according to manufacturer's instructions. Experiments were performed in triplicate and error bars indicate one standard deviation.

SMILES: CC1=C2C[C@H]3[C@@H](CC=C4C[C@@H](O)CC[C@@]43C)[C@@H]2CC[C@]12O[C@@H]1C[C@H](C)CN[C@H]1[C@H]2C [cyclopamine]
- Suppression of Gli-luc reporter activity in Ptch−/− MEFs: suppressed in a dose-dependent manner
